System: MV4-11 cells
Assay: FACS time course of CD44+pBAD+ and Ki67+CD33+CD44+ populations in TKI-treated MV4-11
Format: cell-based, human
Settings: MV4-11, 28 days after TKI treatment
Source text: To follow the cell fate of TKI-treated MV4-11 and MOLM-14, culturing of blasts were continued by performing medium change every 2-3 days. […] The BAD protein is a pro-apoptotic member of the BCL-2 gene family, which is involved in initiating apoptosis. Dephosphorylated BAD is pro-apoptotic by binding BCL-2 and inactivating BCL-2, while phosphorylated BAD (pBAD) is anti-apoptotic by leaving BCL-2 free to inhibit BAX-triggered apoptosis.
Small Molecular Inhibitors and in vitro & ex vivo Treatment. […] The dose of 80 nM for the four TKIs was selected based on their dose-dependent cytotoxicity in previous reports. […]
Flow Cytometry (FACS). […] About 1×10^4˜10^6 cells in 100 μl FACS buffer (PBS containing 1% FBS and 0.05% sodium azide) were stained with various fluorescence-conjugated antibodies specific for the desired cell surface proteins at 4° C. for 30 min. The surface-stained cells were then fixed and permeabilized using the appropriate reagents (e.g. the BD Pharmingen Cytofix/Cytoperm buffer) and stained with different fluorescence-conjugated antibodies specific for the desired intracellular proteins at 4° C. for 2 hours in the permeabilizing buffer (e.g. the BD Perm/Wash buffer). […] Finally, the cells were washed twice in the permeabilizing buffer and twice in the FACS buffer before being analyzed on the BD FACSAria II. […]

CNC(=O)c1cc(Oc2ccc(NC(=O)Nc3ccc(Cl)c(C(F)(F)F)c3)cc2)ccn1 [SORA, Sorafenib]
population of viable CD44+pBAD+ cells: 1.05%
